From ChEMBL document CHEMBL1152978 (J Med Chem, 2009)

Sequences of proteins named here, by UniProt entry; tags and fusion partners are left off. A change or cut given only in a name is not applied to a line headed by its entry.
UniProt P11229: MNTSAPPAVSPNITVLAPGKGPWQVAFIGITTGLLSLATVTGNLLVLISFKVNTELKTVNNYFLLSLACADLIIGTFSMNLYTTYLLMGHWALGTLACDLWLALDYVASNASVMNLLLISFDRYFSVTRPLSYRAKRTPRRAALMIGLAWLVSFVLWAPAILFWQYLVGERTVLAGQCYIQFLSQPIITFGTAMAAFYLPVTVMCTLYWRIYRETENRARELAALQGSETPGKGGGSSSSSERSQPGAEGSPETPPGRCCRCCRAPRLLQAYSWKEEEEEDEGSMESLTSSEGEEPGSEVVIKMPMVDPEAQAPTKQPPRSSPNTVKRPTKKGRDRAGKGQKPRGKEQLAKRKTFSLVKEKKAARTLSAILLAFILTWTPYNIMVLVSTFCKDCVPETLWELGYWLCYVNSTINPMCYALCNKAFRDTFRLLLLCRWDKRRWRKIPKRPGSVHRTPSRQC
UniProt P08172, whole entry: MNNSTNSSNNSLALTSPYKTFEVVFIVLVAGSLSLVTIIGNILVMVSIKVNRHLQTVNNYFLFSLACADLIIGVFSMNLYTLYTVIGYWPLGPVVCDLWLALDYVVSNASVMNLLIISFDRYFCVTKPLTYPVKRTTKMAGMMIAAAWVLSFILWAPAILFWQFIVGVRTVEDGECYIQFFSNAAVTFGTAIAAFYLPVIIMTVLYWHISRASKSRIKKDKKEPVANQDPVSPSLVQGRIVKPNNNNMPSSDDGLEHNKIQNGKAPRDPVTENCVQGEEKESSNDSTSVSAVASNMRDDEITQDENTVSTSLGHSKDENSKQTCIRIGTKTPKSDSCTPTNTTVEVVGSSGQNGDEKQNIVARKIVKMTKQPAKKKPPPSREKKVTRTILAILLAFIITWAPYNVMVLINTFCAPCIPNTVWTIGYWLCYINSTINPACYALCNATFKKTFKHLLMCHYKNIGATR
UniProt P20309, whole entry: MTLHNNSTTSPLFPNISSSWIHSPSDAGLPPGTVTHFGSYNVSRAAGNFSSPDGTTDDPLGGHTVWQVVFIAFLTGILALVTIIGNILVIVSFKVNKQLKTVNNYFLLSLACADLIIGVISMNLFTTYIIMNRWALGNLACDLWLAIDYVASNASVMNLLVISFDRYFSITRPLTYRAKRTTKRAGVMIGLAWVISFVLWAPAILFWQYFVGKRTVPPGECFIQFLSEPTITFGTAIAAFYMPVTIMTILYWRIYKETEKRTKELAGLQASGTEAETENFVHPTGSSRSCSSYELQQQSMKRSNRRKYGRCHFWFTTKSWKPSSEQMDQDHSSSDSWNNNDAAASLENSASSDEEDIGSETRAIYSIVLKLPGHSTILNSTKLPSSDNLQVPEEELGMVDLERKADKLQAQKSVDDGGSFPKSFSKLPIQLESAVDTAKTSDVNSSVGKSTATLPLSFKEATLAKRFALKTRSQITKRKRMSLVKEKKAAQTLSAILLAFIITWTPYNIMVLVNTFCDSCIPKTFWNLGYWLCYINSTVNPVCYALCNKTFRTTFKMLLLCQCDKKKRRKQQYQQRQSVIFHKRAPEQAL

What was measured:
[1] = molecular target: T1, Muscarinic acetylcholine receptor M1 (Homo sapiens, UniProt P11229); test: Displacement of [3H]NMS from human muscarinic M1 receptor expressed in CHOK1 cells by microplate scintillation counting; format: cell-based, CHO-K1
[2] = molecular target: T2, Muscarinic acetylcholine receptor M2 (Homo sapiens, UniProt P08172); test: Displacement of [3H]NMS from human muscarinic M2 receptor expressed in CHOK1 cells by microplate scintillation counting; format: cell-based, CHO-K1
[3] = molecular target: T3, Muscarinic acetylcholine receptor M3 (Homo sapiens, UniProt P20309); test: Displacement of [3H]NMS from human muscarinic M3 receptor expressed in CHOK1 cells by microplate scintillation counting; format: cell-based, CHO-K1
[4] = molecular target: T2, Muscarinic acetylcholine receptor M2; test: Binding affinity to muscarinic M2 receptor
[5] = molecular target: T1, Muscarinic acetylcholine receptor M1; test: Binding affinity to muscarinic M1 receptor
[6] = molecular target: T3, Muscarinic acetylcholine receptor M3

Which results are given for `CC(C)[N+]1(C)C2CCC1CC(OC(=O)C(CO)c1ccccc1)C2.O.[Br-]` (stereo unspecified)?
IC50 [1]: 2.65 nM; IC50 [2]: 2.24 nM; IC50 [3]: 2.07 nM; Ki [4]: 1.02 nM; Ki [5]: 1.51 nM; Ki [6]: 0.83 nM
